The values below are quoted from earlier work in US6444811B1, “Pyrazinones, compositions containing such compounds and methods of use” (Merck Frosst Canada & Co., priority 1999, dated 2002).

For one series, the target named is T1, caspase-1 (Homo sapiens, UniProt P29466).
T1 sequence (P29466 120-297 limits assumed): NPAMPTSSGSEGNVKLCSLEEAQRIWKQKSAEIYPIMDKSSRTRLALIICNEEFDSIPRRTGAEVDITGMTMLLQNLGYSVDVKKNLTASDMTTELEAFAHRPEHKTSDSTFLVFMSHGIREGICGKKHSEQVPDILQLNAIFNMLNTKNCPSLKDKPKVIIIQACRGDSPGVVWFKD
T1 sequence (P29466 317-404 limits assumed): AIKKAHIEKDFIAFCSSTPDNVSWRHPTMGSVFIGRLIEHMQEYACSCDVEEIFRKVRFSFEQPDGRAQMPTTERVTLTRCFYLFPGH

The target in another series is T2, caspase-3 (Homo sapiens, UniProt P42574).
T2 sequence (P42574 29-175 limits assumed): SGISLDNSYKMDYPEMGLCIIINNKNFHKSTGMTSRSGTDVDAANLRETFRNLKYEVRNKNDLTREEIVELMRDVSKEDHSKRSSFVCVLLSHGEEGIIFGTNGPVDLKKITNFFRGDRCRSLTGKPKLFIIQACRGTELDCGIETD
T2 sequence (P42574 176-277 limits assumed): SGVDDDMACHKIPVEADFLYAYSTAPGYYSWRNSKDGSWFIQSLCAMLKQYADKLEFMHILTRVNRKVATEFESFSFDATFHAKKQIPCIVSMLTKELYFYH

A value given as a limit tells only on which side of the number the result lay.

As for Ac-DEVD-CHO, the “inhibition of caspase-1 (in words)” value at caspase-1 was “weaker but reasonable inhibitor of caspase-1”. Also, the Ki on caspase-3 is < 1 nM. The “kon caspase-3” value at caspase-3 (slow-binding time-dependent inhibition) is 130000 M⁻¹ s⁻¹.
